Tested on: MT-4 cells

With dextran sulfate-5000 [DS-5000] the CC50 was > 20 µM.
